Source: PMC5384254, “Discovery of new muscarinic acetylcholine receptor antagonists from Scopolia tangutica” (Scientific Reports, 2017)

By UniProt entry, the sequences of proteins in these tests, tags left out.
UniProt P20309, whole entry: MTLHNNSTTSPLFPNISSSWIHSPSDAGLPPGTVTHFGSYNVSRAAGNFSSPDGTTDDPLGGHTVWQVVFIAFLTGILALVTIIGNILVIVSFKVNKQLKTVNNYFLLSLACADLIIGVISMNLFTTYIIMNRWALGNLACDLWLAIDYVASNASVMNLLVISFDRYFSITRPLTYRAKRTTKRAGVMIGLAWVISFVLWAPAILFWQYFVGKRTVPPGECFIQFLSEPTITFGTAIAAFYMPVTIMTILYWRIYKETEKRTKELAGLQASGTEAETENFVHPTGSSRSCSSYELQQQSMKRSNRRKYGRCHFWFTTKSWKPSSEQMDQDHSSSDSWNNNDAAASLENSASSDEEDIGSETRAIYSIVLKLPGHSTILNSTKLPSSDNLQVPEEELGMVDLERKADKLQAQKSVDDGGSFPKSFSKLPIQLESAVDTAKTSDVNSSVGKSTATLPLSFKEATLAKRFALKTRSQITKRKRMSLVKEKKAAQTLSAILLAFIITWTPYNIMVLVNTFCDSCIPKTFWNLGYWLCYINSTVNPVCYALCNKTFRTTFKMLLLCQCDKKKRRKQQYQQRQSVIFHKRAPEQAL

Target: M3 receptor (Homo sapiens, UniProt P20309)
Assay: two-step DMR assay, pure compounds, on endogenous M3 receptor in HT-29 cells
Settings: for IC50: read-out: IC50 value on M3, inhibition of DMR of 16 μM acetylcholine at 30 min post-stimulation after 1 h pretreatment, mean ± s.d., n = 4

Row | Structure (SMILES) | efficacy and potency of inhibition of the acetylcholine DMR (in words) (16 μM acetylcholine, second step) | IC50 value on M3 (inhibition of DMR of 16 μM acetylcholine at 30 min post-stimulation after 1 h pretreatment, mean ± s.d., n = 4) | IC50 [nM] | antagonistic activity on M3 receptor (in words) (two-step DMR assay) | reduction of activity on M3 by removal of methyl at R3 (3 vs 11 and 4 vs 7) [fold] | decrease of potency on M3 relative to compound 1 (structure-activity comparison centered with 1)
1 | CN1[C@H]2C[C@H](OC(=O)[C@@](O)(CO)c3ccccc3)C[C@@H]1[C@@H](O)C2 | does not fully inhibit the acetylcholine DMR at the highest dose | weak | 69900 | nearly inactive |  | 
2 | O=C(O[C@H]1C[C@@H]2N[C@H](C1)[C@H]1O[C@H]12)[C@@](O)(CO)c1ccccc1 |  |  | 1110 |  | < 5 | approximately 25 fold
3 | CN1[C@@H]2CC[C@H]1C[C@@H](OC(=O)[C@@](O)(CO)c1ccccc1)C2 |  |  | 490 |  |  | 
